# Apparent affinities of Ab-91 variants for a coronavirus HR2 peptide

Binding partner: SARS-CoV-2 spike HR2 peptide, sequence PDVDLGDISGINAS.

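Variants in AAYL51 differ from the parent at up to three CDR positions; double and triple changes were sampled at random. The assay is AlphaSeq: two haploid yeast populations carry antibody and antigen on their surface. Pairs that bind mate more often; barcode pairs of the diploids are counted by sequencing. Read counts were normalised to the haploid input and turned into Kd by a linear fit to BCL2-family pairs of known affinity, for each replicate. Each pool was mated in three replicate cultures.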

Ab-91 is the parent antibody, in scFv form: VL, then a 15-residue (Gly4Ser)3 linker, then VH. The light chain is unchanged in all variants.
VL: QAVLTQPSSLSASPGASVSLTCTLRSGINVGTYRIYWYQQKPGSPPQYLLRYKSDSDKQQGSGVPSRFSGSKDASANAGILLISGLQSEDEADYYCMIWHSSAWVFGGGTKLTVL
VH: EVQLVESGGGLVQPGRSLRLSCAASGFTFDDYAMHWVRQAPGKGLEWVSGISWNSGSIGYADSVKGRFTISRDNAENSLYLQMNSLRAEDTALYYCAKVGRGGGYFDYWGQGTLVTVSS

Each variant's VH is given in full. Affinities are written as log10 Kd with Kd in nM; a lower number is a better binder. Where no diploid with the target was found in that replicate, the entry reads "ND": below detection, most likely a poor binder, though not proof of it. Parent in this assay: reference entry 1.86, copy in this library 0.88. As a blank, each scFv also met three strains without target: over library AAYL51, 21% of these pairings were detected, typically at 4.54 and seldom below 3.26. For each scFv, signals with the empty controls are counted beside the result, with their mean in brackets.

| VH | log10 Kd, replicates | empty controls |
|---|---|---|
| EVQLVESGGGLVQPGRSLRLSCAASGFTSDDYAMHWVRQAPGKGLEWVSGISWNSGSIGYADSVRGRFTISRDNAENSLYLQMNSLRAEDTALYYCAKVGRGHGYFDYWGQGTLVTVSS | 4.95 5.17 ND | 5 of 9 (4.83) |
| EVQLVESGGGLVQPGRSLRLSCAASGFTFDDYYMHWVRQAPGKGLEWVSGISWNSGSITYADSVKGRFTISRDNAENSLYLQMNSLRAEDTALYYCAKVGRGGGYFDYWGQGTLVTVSS | 4.18 5.05 ND | 5 of 9 (5.41) |
| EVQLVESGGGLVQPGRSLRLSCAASGFTFDDYAMHWVRQAPGKGLEWVSGASWNSGSIGGADSVKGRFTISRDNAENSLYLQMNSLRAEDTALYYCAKVRRGGGYFDYWGQGTLVTVSS | ND ND ND | 0 of 9 |
| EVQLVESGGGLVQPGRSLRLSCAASGFTFDTYAMCWVRQAPGKGLEWVSQISWNSGSIGYADSVKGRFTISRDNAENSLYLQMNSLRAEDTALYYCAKVGRGGGYFDYWGQGTLVTVSS | ND ND ND | 3 of 9 (4.74) |
| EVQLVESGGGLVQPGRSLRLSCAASGFTADDYAMHWVRQAPGKGLEWVSGISPNSGSIGYVDSVKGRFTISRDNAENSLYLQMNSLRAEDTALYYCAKVGRGGGYFDYWGQGTLVTVSS | 0.99 1.08 0.65 | 0 of 9 |
| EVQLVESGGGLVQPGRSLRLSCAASGFTFDDYAMHWVRQAPGKGLEWVSGISWNSGSIGYADSVKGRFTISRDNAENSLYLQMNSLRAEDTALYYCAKVGYTGQYFDYWGQGTLVTVSS | ND ND ND | 3 of 9 (4.42) |
| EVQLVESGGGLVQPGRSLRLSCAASGFTFDDYAMHWVRQAPGKGLEWVSGISWNSGSIGLADSVKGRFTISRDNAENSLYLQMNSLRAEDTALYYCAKVGRGGGYFDYWGQGTLVTVSS | ND ND ND | 1 of 9 (4.82) |
| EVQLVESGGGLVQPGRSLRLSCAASGFTFDDYAMHWVRQAPGKGLEWVSGIGWNSGSIGYADSRKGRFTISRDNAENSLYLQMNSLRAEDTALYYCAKVGRGGGYFDYWGQGTLVTVSS | 4.01 4.28 ND | 2 of 9 (3.75) |
| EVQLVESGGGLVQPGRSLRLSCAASGYTFDDYAMHWVRQAPGKGLEWVSGISWNAQSIGYADSVKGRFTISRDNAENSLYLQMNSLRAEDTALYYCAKVGRGGGYFDYWGQGTLVTVSS | 2.84 2.90 3.72 | 3 of 9 (4.71) |
| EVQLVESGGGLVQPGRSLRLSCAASGFTFWDYAMHWVRQAPGKGLEWVSGISWNSGSIGYADSVKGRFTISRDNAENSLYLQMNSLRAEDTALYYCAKVGRGAGYFVYWGQGTLVTVSS | 2.20 2.17 1.89 | 1 of 9 (4.81) |
| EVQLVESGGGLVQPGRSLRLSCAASGFTGDDYAMHWVRQAPGKGLEWVSGISWNSGSIGHADSVKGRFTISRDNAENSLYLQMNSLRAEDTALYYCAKVGRGGGYFSYWGQGTLVTVSS | ND ND ND | 3 of 9 (4.36) |
| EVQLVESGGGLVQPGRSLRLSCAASGFTPDDYAMHWVRQAPGKGLEWVSGISWNSGSIGKADSVKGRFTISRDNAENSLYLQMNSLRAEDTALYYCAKVGRGFGYFDYWGQGTLVTVSS | 5.82 ND 5.55 | 3 of 9 (5.14) |
| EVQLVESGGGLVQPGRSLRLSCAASGFTFYDVAMNWVRQAPGKGLEWVSGISWNSGSIGYADSVKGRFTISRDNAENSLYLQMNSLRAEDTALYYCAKVGRGGGYFDYWGQGTLVTVSS | ND ND ND | 0 of 9 |
| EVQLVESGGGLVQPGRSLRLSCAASGFTFKDYAMHWVRQAPGKGLEWVSGISWNVGSIEYADSVKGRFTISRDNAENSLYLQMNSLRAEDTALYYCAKVGRGGGYFDYWGQGTLVTVSS | ND ND ND | 0 of 9 |
| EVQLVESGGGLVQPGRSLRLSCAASGFTFDDYAMHWVRQAPGKGLEWVSGGSWNFGSIEYADSVKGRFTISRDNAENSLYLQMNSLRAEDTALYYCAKVGRGGGYFDYWGQGTLVTVSS | 3.29 ND ND | 2 of 9 (3.93) |
| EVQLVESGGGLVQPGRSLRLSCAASGFTFDDYAMHWVRQAPGKGLEWVSGKSWNSGSIGYADSVKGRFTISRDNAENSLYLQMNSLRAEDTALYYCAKVGPGGGYFDYWGQGTLVTVSS | 4.33 ND 5.25 | 8 of 9 (4.70) |

Repeated from above, the 2 best binders with a signal in all replicates:

| VH | log10 Kd, replicates | empty controls |
|---|---|---|
| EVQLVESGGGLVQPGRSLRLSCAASGFTADDYAMHWVRQAPGKGLEWVSGISPNSGSIGYVDSVKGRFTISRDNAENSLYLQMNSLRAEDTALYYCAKVGRGGGYFDYWGQGTLVTVSS | 0.99 1.08 0.65 | 0 of 9 |
| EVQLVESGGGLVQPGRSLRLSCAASGFTFWDYAMHWVRQAPGKGLEWVSGISWNSGSIGYADSVKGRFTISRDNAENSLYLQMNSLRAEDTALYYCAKVGRGAGYFVYWGQGTLVTVSS | 2.20 2.17 1.89 | 1 of 9 (4.81) |

Reference: Engelhart et al. 2022, doi:10.1038/s41597-022-01779-4. File: FLAb, binding data.